Series [1] addresses T1, mtCYP2E1 (Rattus norvegicus, UniProt P05182).
Series [2] concerns the target T1, mtCYP2E1. The note with it: low concentration (10 μM); equal CYP2E1 levels in each compartment assumed.
Series [3] addresses T2, erCYP2E1 (Rattus norvegicus, UniProt P05182). Nature of the series: Steady-state kinetics of substrate oxidation by rat liver microsomes. On the technique in general: Microsomes from liver hold many membrane-bound enzymes, among them those of drug oxidation.
Series [4] deals with T2, erCYP2E1. Conditions: equal CYP2E1 levels in each compartment assumed.

The chains behind the UniProt entries cited, without tags or fusion partners. Residues count along the entry.
UniProt P05182, 2-493 limits assumed: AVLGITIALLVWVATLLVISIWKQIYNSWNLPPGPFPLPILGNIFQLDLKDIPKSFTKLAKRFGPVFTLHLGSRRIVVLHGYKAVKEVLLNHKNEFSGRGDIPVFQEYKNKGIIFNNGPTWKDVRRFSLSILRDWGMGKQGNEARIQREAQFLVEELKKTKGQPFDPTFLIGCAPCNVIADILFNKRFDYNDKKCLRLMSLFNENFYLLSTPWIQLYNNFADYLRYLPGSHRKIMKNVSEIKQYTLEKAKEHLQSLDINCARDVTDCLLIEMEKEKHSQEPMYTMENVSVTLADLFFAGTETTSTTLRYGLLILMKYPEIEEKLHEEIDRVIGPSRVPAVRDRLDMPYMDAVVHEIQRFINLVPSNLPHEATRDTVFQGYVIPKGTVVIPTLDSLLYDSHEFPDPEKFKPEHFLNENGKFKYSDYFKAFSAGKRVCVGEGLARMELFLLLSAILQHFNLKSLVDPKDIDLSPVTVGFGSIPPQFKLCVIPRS

The source of these data is publication PMC4658230 (Toxicology, 2015).

The structures appear in SMILES notation. Read-outs that look alike come from different tables or passages of the source.

Take `C=Cc1ccccc1` [styrene]: the “Preferred Mechanism” value is recorded as “One-Site Model (Michaelis-Menten)” at mtCYP2E1 [1] and “Two-Site Model, ESS active only” at erCYP2E1 [3]. Also, the “turnover rate of mtCYP2E1 lower than erCYP2E1” value on mtCYP2E1 [1] was “six-fold”. For the same molecule, the “percent of total metabolism through mtCYP2E1” value on mtCYP2E1 [2] is “two-thirds”. Further, on erCYP2E1 [3], the “affinity of second molecule greater than first molecule” value was “three-fold”. Moreover, on erCYP2E1 [3] (pH 7.4), the Kss is on record as 32 (2 to 64) μM. In addition, the “percent of total metabolism through erCYP2E1” value is on record as 85% at erCYP2E1 [4] (high concentration (500 μM)) and “one-third” at erCYP2E1 [4] (low concentration (10 μM)).
